For three compounds, activity change, negative = inhibition results are on record in PubChem BioAssay AID1259400 (National Center for Advancing Translational Sciences (NCATS), 2018).

Chains of the proteins cited; added tags and fusions are not shown.
UniProt Q9HBX9, whole entry: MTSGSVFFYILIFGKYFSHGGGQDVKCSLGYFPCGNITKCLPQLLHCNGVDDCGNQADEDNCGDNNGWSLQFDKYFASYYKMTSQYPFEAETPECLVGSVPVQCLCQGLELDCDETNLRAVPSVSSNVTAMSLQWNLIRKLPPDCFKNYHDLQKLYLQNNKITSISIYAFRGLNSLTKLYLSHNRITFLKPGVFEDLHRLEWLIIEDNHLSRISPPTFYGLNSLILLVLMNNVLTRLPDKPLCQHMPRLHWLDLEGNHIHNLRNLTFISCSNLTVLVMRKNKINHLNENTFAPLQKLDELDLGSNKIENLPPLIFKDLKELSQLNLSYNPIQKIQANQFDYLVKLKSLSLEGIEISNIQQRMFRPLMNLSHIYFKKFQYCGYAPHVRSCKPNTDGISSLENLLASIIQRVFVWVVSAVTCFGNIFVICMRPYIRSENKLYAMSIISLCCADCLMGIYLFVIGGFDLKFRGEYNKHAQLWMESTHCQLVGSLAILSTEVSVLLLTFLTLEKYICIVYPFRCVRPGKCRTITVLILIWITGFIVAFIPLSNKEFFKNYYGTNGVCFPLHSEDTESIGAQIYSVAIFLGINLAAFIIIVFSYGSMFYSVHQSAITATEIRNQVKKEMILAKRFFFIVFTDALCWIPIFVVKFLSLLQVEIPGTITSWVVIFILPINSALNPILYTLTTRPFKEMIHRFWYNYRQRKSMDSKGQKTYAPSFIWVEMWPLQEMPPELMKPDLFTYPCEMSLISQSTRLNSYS

Only a part is listed here, and it is no random draw. Calls of active or inactive are those of the source.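 How the source made its calls: active means activity change of -60% or lower, but not beyond a set lower limit; inconclusive means change between -60% and -40%, or beyond the set limit; inactive means change above -40%.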
On the % scale 0 is the no-effect control and ±100 the full control effect.

In the test the target is Relaxin receptor 1 (Homo sapiens) (UniProt Q9HBX9). Briefly: qHTS Assay for Antagonists of the Relaxin Receptor RXFP1. As to conditions: HEK293-RXFP1, relaxin-stimulated cAMP HTRF, 30 min; at 57.5 µM; hits give low values. The text has this:
The relaxin hormone is involved in the variety of biological functions in normal tissues and diseases. The role of relaxin is well-established in female reproduction and parturition, mammary gland and endometrial development, maintenance of myometrial quiescence during pregnancy. Relaxin signaling through its G protein-coupled receptor (GPCR) RXFP1 results in ECM remodeling through regulation of collagen deposition, cell invasiveness, proliferation and overall tissue homeostasis. […] Recombinant human relaxin (rhRlx) is currently being tested in clinical trials as a protective agent in congestive heart failure, in treating severe preeclampsia, and as an anti-fibrotic agent in various organs. […] Upon relaxin binding RXFP1 activation leads to the activation of adenylate cyclase (AC) via G?s. cAMP will activate PKA, which phosphorylates many signaling proteins. Thus, detection of cAMP increase is an easy and reliable indication of relaxin receptor activation. To screen for antagonists of the relaxin receptor, a HEK293T cell line stably transfected with RXFP1 was used. RXFP1 activation by relaxin in presence of various concentrations of tested compounds was assayed by changes in cAMP levels as detected with a time-resolved fluorescence energy transfer (TR-FRET) cAMP detection kit.
For the primary screening, we used HTRF(R) (Homogenous Time-Resolved Fluorescence) cAMP HiRange assay (Cisbio Bioassays, 62AM6PEJ). Presence of cAMP in the cell lysate disrupts binding between the Cryptate-labeled anti-cAMP and d2-labeled cAMP pair, leading to a decrease in TR-FRET signal. […] The EC50 values were determined from concentration-response data modeled with the standard Hill equation. […] The plates were incubated at ambient temperature for 30 minutes and, then, FRET signal was read on Envision plate reader (PerkinElmer, Waltham, MA), at wavelengths 340nm (excitation), 615nm & 665nm (emission of donor and acceptor channels respectively).
In general terms: qHTS replaces the single test concentration by a dilution series.
Consider `CCC(=O)N(c1ccccc1)C1(COC)CCN(CCn2nnn(CC)c2=O)CC1`, for which the activity change, negative = inhibition was inactive: 9.81%.
As to `CCC(=O)N(c1ccccc1)C1(COC)CCN(CCc2cccs2)CC1`, the activity change, negative = inhibition is inactive: -21.6%.
Under `CN(CCCl)CCCl` stands inactive: 24.3%.
